Values of other authors, collected in patent publication US8389472B2, “Exendin-4 to treat nonalcoholic steatohepatitis and nonalcoholic fatty liver disease” (Amylin Pharmaceuticals, LLC, priority 2005, dated 2013).

Settings: compared to human amylin; cited from earlier work

SMILES: CC[C@H](C)[C@H](NC(=O)[C@@H]1CCCN1C(=O)CNC(=O)[C@H](Cc1ccccc1)NC(=O)[C@H](CC(N)=O)NC(=O)[C@H](CC(N)=O)NC(=O)[C@H](CO)NC(=O)[C@H](CO)NC(=O)[C@H](Cc1c[nH]cn1)NC(=O)[C@@H](NC(=O)[C@H](CC(C)C)NC(=O)[C@H](Cc1ccccc1)NC(=O)[C@H](CC(N)=O)NC(=O)[C@H](C)NC(=O)[C@H](CC(C)C)NC(=O)[C@H](CCCNC(=N)N)NC(=O)[C@H](CCC(N)=O)NC(=O)[C@@H](NC(=O)[C@H](C)NC(=O)[C@@H]1CSSC[C@H](NC(=O)[C@@H](N)CCCCN)C(=O)N[C@@H](CC(N)=O)C(=O)N[C@@H]([C@@H](C)O)C(=O)N[C@@H](C)C(=O)N[C@@H]([C@@H](C)O)C(=O)N1)[C@@H](C)O)C(C)C)C(=O)N[C@@H](CC(C)C)C(=O)N1CCC[C@H]1C(=O)N1CCC[C@H]1C(=O)N[C@H](C(=O)N[C@@H](CC(N)=O)C(=O)N[C@H](C(=O)NCC(=O)N[C@@H](CO)C(=O)N[C@@H](CC(N)=O)C(=O)N[C@H](C(=O)N[C@@H](Cc1ccc(O)cc1)C(N)=O)[C@@H](C)O)C(C)C)[C@@H](C)O [^25,28,29Pro-h-amylin]
- solubility and stability characteristics: more desirable solubility and stability characteristics
